The entries are a selection whose mix differs from that of the whole data set. Activity calls are given as the source filed them. Rule as the data show it: active = inhibition mostly above about 23% (no sharp cut-off); inactive = mostly below about 18%.

By UniProt entry, the sequences of proteins in these tests, tags left out.
UniProt P47898, whole entry, looked up: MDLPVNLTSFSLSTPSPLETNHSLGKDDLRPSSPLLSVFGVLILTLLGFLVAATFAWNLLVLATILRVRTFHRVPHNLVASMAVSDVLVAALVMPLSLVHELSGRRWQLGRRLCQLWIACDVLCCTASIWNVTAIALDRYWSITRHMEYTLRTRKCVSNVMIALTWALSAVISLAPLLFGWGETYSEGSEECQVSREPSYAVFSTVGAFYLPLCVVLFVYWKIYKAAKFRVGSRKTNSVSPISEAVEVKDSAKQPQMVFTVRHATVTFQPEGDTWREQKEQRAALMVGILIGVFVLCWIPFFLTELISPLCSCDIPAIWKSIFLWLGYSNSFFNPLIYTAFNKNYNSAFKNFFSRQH

Our source for the inhibition values is PubChem BioAssay AID504634 (The Scripps Research Institute Molecular Screening Center, 2011).

For this experiment, the target named is 5-hydroxytryptamine receptor 5A (Homo sapiens) (UniProt P47898). Nature of the experiment: HTR5A inverse agonists in luminescence cell assay, primary screen, counter-screen for OPRM1-OPRD1 heterodimer inverse agonist project, full-deck HTS (AID 504634).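 Also: 0% = cells with DMSO and 100% = no-cell wells with DMSO.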 As to conditions: HTR5A cell line, inverse agonism, at 9.3 µM, stronger effect = higher value. Background: Counterscreens check selectivity or assay interference.
On to `CC(=O)Nc1ccc2c(c1)nc1n2CCN(C2CCCCC2)C1`, for which the inhibition was inactive: -3.55%.

Consider `CCN(CC)CCn1c(NC(=O)c2ccc(Cl)cc2)nc2ccccc21`, for which the inhibition is inactive: -6.47%.

Take `Cn1c(=O)n(CC(N)=O)c2ccccc21`: the inhibition was inactive: -11.2%. Turning to `COc1cc(C2NCCC3(OCCO3)C2(C)C)cc(OC)c1OC` (centres undefined), the inhibition was inactive: -18.5%. For `CC(C)[C@H](NC(=O)N1CCn2c1nc1ccccc12)C(=O)N[C@@H](C(=O)O)c1ccccc1` the value was inactive: 6.68%; for `CC1CCC2C(=O)N(c3ccc(NC4CCN(Cc5ccccc5)CC4)c([N+](=O)[O-])c3)C(=O)C2C1` (centres undefined), inactive: 0.87%. For the compound `O=C(Cn1cnc2c(NCc3ccccc3)ncnc21)NCC1CCCO1` (centres undefined), the inhibition was inactive: -5.13%.

On to `O=C(Cn1cnc2c(NCc3ccccc3)ncnc21)NCc1ccccn1`, for which the inhibition was inactive: -3.15%.

Take `CCCC(=O)Nc1nnc(/C=C/c2ccc(OC)cc2)s1`: the inhibition was inactive: 6.24%.

For the compound `Cc1ccc2c(c1)C1CN(C)CCC1N2C(=S)Nc1ccc(OC(F)F)cc1` (centres undefined), the inhibition is inactive: 14.2%. As to `CC(=O)Nc1nc2ccccc2n1CCN(C)C`, the inhibition was inactive: -2.33%. Regarding `c1ccc2c(c1)nc1n2CCN1`, the inhibition is inactive: 10%. For `Nc1cccc2c([As](=O)(O)O)cccc12` the value was inactive: -13.6%; for `O=C(Cn1c(CO)nc2ccccc21)NCCc1ccccc1`, inactive: 26.2%. For the compound `Cc1ccc(NCCc2c([N+](=O)[O-])cc([N+](=O)[O-])cc2[N+](=O)[O-])cc1`, the inhibition was inactive: -14.9%. In the case of `O=C(Cn1c(C(F)(F)F)nc2ccccc21)Nc1ccccc1N1CCOCC1`, the inhibition was inactive: -9.53%.

Take `COc1ccc(CNC(=O)Cn2cnc3c(OCc4ccccc4)ncnc32)cc1`: the inhibition is inactive: -18.6%.

`O=C(Nc1nc2ccccc2n1CCN1CCOCC1)c1ccccc1`: the inhibition is inactive: 0.55%. For `NNC(=O)Cn1cnc2ccccc21`, the inhibition was inactive: -26.2%. Take `Cc1ccc2c(c1)C1CN(C)CCC1N2C(=O)c1ccccc1NS(=O)(=O)c1cccc(C(F)(F)F)c1` (centres undefined): the inhibition was inactive: 1.02%. Turning to `Oc1ccc(CC2(N3CCCC3)CCCCC2)cc1`, the inhibition is inactive: 4.25%. As to `Cn1c(=O)n(CCc2ccccc2)c(=O)c2c1nc1n2CCN1Cc1ccco1`, the inhibition was inactive: -1.61%. As for `C[C@H](NC(=O)N1CCn2c1nc1ccccc12)C(=O)NCc1ccc(F)cc1`, the inhibition was inactive: 5.05%. With `CSCC[C@H](NC(=O)N1CCn2c1nc1ccccc12)C(=O)N1CCCCC1`, the inhibition was inactive: -2.44%. Regarding `CCCOP(=S)(Nc1nc(N)cc(=O)[nH]1)OCCC`, the inhibition is inactive: -28.7%.

For `O=C(CSc1nc2ccccc2n1CC(=O)N1CCOCC1)N1CCCC1`, the inhibition is inactive: 15.3%.

Consider `CCN(CC)CCCNC(=S)N1CCn2c(nc3ccccc32)C1`, for which the inhibition is inactive: 3.54%.

With `C[C@H](NC(=O)N1CCn2c1nc1ccccc12)C(=O)N1CCCCC1`, the inhibition is inactive: -8.9%. Take `CCc1cccc(CC)c1N(COC)C(=O)Cn1c(CO)nc2ccccc21`: the inhibition was inactive: -0.98%.

Consider `CSc1nc2ccccc2n1CC(=O)Nc1ccc(C)c(C)c1`, for which the inhibition is inactive: -2.77%. On to `CCOC(=O)CC[C@H](NC(=O)Cn1cnc2c(SC)nc(N)nc21)C(=O)OCC`, for which the inhibition is inactive: -1.7%. In the case of `COc1ccc(/C=N/NC(=O)Cn2cnc3c2c(=O)n(C)c(=O)n3C)cc1`, the inhibition is inactive: -22.7%. Regarding `COC(=O)C1=C(Cn2cnc3ccccc32)NC(=O)NC1c1cc(C)ccc1C` (centres undefined), the inhibition was inactive: -1.24%. Take `c1ccc(CN2CCC(Nc3nc(-c4cccnc4)nc4ccccc34)CC2)cc1`: the inhibition was inactive: -5.05%.

For `CC(C)(C)C(=O)NC(Sc1ccccc1)C(Cl)(Cl)Cl` (centres undefined), the inhibition is inactive: 5.61%. With `O=C(Cn1c(CO)nc2ccccc21)Nc1ccccc1Cl`, the inhibition was inactive: -13%. For the compound `COc1ccc(Cl)cc1NC(=O)CN(C)C(=O)Cn1cnc2c1c(=O)n(C)c(=O)n2C`, the inhibition was inactive: -10.4%. Regarding `CSc1nc2ccccc2n1CC(=O)Nc1c(C)n(C)n(-c2ccccc2)c1=O`, the inhibition is inactive: 12.4%. For `Cc1ccc2c(c1)C1C[N+](C)(CC(=O)c3ccccc3)CCC1N2C(=O)c1ccccc1Cl` (centres undefined) the value was inactive: -23.5%.

Turning to `CC(/C=C/c1ccccc1)=N/NC(=O)CCC(=O)Nc1ccccc1C`, the inhibition is inactive: -27.7%. To `COc1cccc(C(=O)CSc2nc3ccccc3n2CC(=O)N2CCOCC2)c1` belongs inactive: -13.5%; to `O=C(Cn1c(-c2cncs2)nc2ccccc21)NCCc1ccccc1`, inactive: -13.7%. Consider `CCc1cc(O)c([N+](=O)[O-])c(C)c1[N+](=O)[O-]`, for which the inhibition is inactive: 3.31%. For `CCOC(=O)c1ccc(NC(=O)Cn2c(-c3nonc3N)nc3ccccc32)cc1` the value was inactive: -75.2%; for `COCCN1CCn2c(nc3cc(NC(C)=O)ccc32)C1`, inactive: 8.69%; for `COCCNC(=O)Cn1cnc2c1c(=O)n(C)c(=O)n2C`, inactive: 9.53%.

Take `CCOc1ccc(C2=NCC(CBr)S2)cc1` (centres undefined): the inhibition was inactive: 4.88%. On to `O=P1(Nc2nc3ccc(Cl)cc3s2)COc2ccccc2O1` (centres undefined), for which the inhibition is inactive: -8.32%. Take `O=C(Cn1cnc2c(OCc3ccccc3)ncnc21)NCc1ccccc1`: the inhibition is inactive: 11.1%. As to `CCn1c(=O)c2c(nc3n2CCN3c2ccccc2)n(C)c1=O`, the inhibition is inactive: -1.48%. Take `CC1CN(C(=O)Cn2cnc3c2c(=O)n(C)c(=O)n3C)CC(C)O1` (centres undefined): the inhibition was inactive: 8.65%.

Consider `C[C@H](NC(=O)N1CCn2c1nc1ccccc12)C(=O)NCc1ccccc1`, for which the inhibition is inactive: 10.5%. To `COc1cccc(CNC(=O)[C@H](CCSC)NC(=O)N2CCn3c2nc2ccccc23)c1` belongs inactive: -18.7%. As for `Cc1nc2ccccc2n1CC(=O)N1CC(=O)Nc2ccccc21`, the inhibition was inactive: -40.5%. On to `COC(=O)c1ccc(CNC(=O)Cn2cnc3c(NCc4ccccc4)ncnc32)cc1`, for which the inhibition is inactive: 2.26%. For the compound `Cc1ccc2c(c1)C1CN(C)CCC1N2C(=O)COc1ccc(N(C)C(=O)c2ccccc2)cc1` (centres undefined), the inhibition was inactive: 3.25%. To `N=c1n(CCCOc2ccccc2Cl)c2ccccc2n1CC(N)=O` belongs inactive: -12.2%.

In the case of `N#Cc1cccc(NC(=O)Cn2c3[n+](c4ccc(C(F)(F)F)cc42)CCCCC3)c1`, the inhibition was inactive: -12.7%. Take `O=C(Cn1c(NCCO)nc2ccccc21)Nc1ccc2c(c1)OCCCO2`: the inhibition is inactive: 2.04%.

By inhibition is commonly meant the change of the read-out against control, counted positive when it falls.
